# The whole screen tested about 290,000 compounds, of which about 3,000 (1%) were called active. Only results without a clear call are listed here; the source files them as inconclusive. How the calls were made is not given here.
# By UniProt entry, the sequences of proteins in these tests, tags left out.
# UniProt P11940, whole entry, looked up: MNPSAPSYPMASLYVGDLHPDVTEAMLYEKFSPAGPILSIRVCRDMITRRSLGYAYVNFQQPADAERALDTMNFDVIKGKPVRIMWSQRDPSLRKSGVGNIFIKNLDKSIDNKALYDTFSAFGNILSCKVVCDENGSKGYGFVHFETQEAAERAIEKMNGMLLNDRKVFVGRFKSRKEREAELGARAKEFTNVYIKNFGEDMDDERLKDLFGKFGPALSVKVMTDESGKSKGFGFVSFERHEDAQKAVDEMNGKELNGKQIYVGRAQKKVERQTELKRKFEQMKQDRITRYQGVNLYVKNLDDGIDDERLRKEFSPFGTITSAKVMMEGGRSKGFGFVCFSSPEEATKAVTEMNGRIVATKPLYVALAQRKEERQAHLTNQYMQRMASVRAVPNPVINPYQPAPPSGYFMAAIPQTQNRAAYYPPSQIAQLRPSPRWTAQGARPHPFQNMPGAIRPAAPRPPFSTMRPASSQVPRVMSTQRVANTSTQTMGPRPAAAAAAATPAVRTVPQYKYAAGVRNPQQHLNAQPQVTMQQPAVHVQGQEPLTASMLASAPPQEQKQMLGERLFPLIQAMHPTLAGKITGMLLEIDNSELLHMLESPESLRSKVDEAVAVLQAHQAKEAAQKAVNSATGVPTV
# Molecular target: Polyadenylate-binding protein 1 (Homo sapiens) (UniProt P11940)
# Assay: PABP poly(A) RNA binding inhibitors, primary screen, biochemical, fluorescence polarization, uHTS (AID 2014);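 further: calls also rest on retests at 20 µM and on dose response follow-up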
# Conditions: at 35 µM, hits give high values
row,SMILES,inhibition
1,Nc1cccc2c([As](=O)(O)O)cccc12,inconclusive: 122%
2,CC(C)NC(=O)NP(=O)(Oc1ccccc1)Oc1ccccc1,inconclusive: 129%
3,Nc1cccc2ccc([As](=O)(O)O)cc12,inconclusive: 122%

# — PubChem BioAssay AID2014 (Sanford-Burnham Center for Chemical Genomics, 2009)
